Usually Ki stands for the equilibrium dissociation constant of an inhibitor or competing ligand from its target.

The values that follow come from BindingDB's records for doi:10.1111/j.1476-5381.1988.tb11723.x (Ciba-Geigy, 1988).

The experiment deals with Glutamate receptor ionotropic, NMDA 1 (Rattus norvegicus, UniProt P35439).

For the compound `O=C(O)c1cc(=O)c2ccccc2[nH]1` [4-hydroxyquinoline-2-carboxylic acid], the Ki was over 10 µM.
